Test [1] addresses human recombinant MOR (Homo sapiens, UniProt P35372). Briefly: μ-Opioid receptor binding, [3H]DAMGO displacement. The settings on record: read-out: Mu Ki.
Test [2] has as its target κ opioid receptors (Homo sapiens, UniProt P41145). The test can be described thus: Broad screen binding, κ opioid receptor.
For test [3], the system named is male CD-1 mice. Briefly: Tail flick (TF) assay, acute nociception. The test is classed as in vivo.
For test [4], the target named is δ opioid receptors (Homo sapiens, UniProt P41143). Briefly: Broad screen binding, δ opioid receptor.
The target in test [5] is nociception opioid receptors (Homo sapiens, UniProt P41146). The test can be described thus: Broad screen binding, nociception opioid receptor.

The Ki is a measure of affinity in units of concentration, obtained from inhibition or displacement.

With `O=C1CN2c3c(cccc3[C@@H]3CN(CCCOc4ccccc4)CC[C@@H]32)N1` [compound 23, (6bR,10aS)-8-(3-Phenoxypropyl)-6b,7,8,9,10,10a-hexahydro-1H-pyrido[3′,4′:4,5]-pyrrolo[1,2,3-de]quinoxalin-2(3H)-one], the Ki in test [1] worked out at 19.7 nM.
As to `O=C1CN2c3c(cccc3[C@@H]3CN(CCCc4n[nH]c5cc(F)ccc45)CC[C@@H]32)N1` [compound 24, (6bR,10aS)-8-(3-(6-Fluoro-1H-indazol-3-yl)propyl)-6b,7,8,9,10,10a-hexahydro-1H-pyrido[3′,4′:4,5]pyrrolo-[1,2,3-de]quinoxalin-2(3H)-one], the Ki in test [1] came to 39 nM.
Still for that read-out and setting: with `O=C1CN2c3c(cccc3[C@@H]3CN(CCCc4noc5cc(F)ccc45)CC[C@@H]32)N1` [compound 26, (6bR,10aS)-8-(3-(6-Fluorobenzo[d]isoxazol-3-yl)propyl)-6b,7,8,9,10,10a-hexahydro-1H-pyrido[3′,4′:4,5]-pyrrolo[1,2,3-de]quinoxalin-2(3H)-one] the figure was 30 nM; with `O=C1CN2c3c(cccc3[C@@H]3CN(CCCNc4ccc(F)cc4)CC[C@@H]32)N1`, 10.8 nM.
Regarding `O=C1CN2c3c(cccc3[C@@H]3CN(CCCOc4ccc(F)cc4)CC[C@@H]32)N1` [compound 5, (6bR,10aS)-8-(3-(4-Fluorophenoxy)propyl)-6b,7,8,9,10,10a-hexahydro-1H-pyrido[3′,4′:4,5]pyrrolo[1,2,3-de]quinoxalin-2(3H)-one], in test [2], the “binding to κ opioid receptors” value is listed as “no significant binding”. Besides, the “acute analgesic effects after subchronic treatment” value in test [3] (ITI-333 0.3 or 3 mg/kg SC once daily for 14 days, acute dose on day 15, vs subchronic vehicle) was “maintained and were only slightly attenuated”. Besides, in test [3] (ITI-333 orally alone, 1, 3 or 10 mg/kg, 30 min prior), the “latency to respond to a nociceptive stimulus in the TF assay” value was “dose-dependently increased”. For the same molecule, in test [3] (acute subcutaneous administration 30 min prior to assay, % MPE), the “ED50, latency to tail flick pain response” value is on record as 0.016 mg/kg. The “analgesic effect after pretreatment with naloxone” value in test [3] (naloxone 3 mg/kg IP 20 min prior to ITI-333 (PO) or morphine (SC)) is “attenuated”. For the same molecule, in test [3] (subcutaneous, 30 min prior, ITI-333 0.003-1 mg/kg, morphine 5 mg/kg), the “latency to tail flick compared to the vehicle” value is “dose-dependently increased”. In addition, in test [4], the “binding to δ opioid receptors” value is on record as “no significant binding”. In test [5], the “binding to nociception opioid receptors” value was “no significant binding”.
Take `N#Cc1ccc(OCCCN2CC[C@H]3[C@@H](C2)c2cccc4c2N3CC(=O)N4)cc1`: the Ki in test [1] worked out at 15 nM.
In the case of `O=C1CN2c3c(cccc3[C@@H]3CN(CCCSc4ccc(F)cc4)CC[C@@H]32)N1`, the Ki in test [1] was 12.9 nM.
On the same count and under the same terms, in the case of `O=C1CN2c3c(cccc3[C@@H]3CN(CCCOc4cccc5cccnc45)CC[C@@H]32)N1` it was 11 nM.

The values above are taken from article PMC11181336, “Discovery of ITI-333, a Novel Orally Bioavailable Molecule Targeting Multiple Receptors for the Treatment of Pain and Other Disorders” (Journal of Medicinal Chemistry, 2024).
